Measured values published in US20260382631A1, “NLRP3 INFLAMMASOME INHIBITORS AND USES THEREOF” (published 2026).

Chains of the proteins cited; added tags and fusions are not shown.
UniProt Q96P20, whole entry: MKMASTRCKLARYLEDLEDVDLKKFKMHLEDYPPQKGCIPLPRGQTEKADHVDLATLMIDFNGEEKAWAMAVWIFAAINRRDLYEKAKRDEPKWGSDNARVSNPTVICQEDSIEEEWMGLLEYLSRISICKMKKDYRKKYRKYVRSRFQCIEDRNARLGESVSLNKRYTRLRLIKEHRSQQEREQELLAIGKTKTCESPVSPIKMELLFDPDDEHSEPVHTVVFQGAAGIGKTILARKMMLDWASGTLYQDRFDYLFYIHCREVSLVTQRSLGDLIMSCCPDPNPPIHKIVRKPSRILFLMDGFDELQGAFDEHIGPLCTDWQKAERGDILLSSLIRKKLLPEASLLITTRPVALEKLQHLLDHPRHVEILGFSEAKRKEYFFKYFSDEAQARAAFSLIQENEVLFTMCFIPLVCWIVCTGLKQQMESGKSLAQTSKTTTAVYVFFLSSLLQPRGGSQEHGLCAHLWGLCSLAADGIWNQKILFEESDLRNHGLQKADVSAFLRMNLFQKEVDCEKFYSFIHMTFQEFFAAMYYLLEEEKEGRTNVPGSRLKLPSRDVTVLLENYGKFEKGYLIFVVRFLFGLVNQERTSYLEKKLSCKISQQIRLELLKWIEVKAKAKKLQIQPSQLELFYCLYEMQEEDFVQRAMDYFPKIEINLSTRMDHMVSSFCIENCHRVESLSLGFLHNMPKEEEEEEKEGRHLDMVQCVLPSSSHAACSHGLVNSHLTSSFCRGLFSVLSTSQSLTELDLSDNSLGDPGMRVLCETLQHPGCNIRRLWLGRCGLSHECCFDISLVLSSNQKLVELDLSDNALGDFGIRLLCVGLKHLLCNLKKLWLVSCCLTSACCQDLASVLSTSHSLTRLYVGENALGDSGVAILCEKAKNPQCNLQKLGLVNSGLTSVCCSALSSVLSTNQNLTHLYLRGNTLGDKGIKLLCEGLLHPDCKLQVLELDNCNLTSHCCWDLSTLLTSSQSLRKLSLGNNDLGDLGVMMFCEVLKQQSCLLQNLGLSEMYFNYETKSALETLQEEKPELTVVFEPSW

What was measured:
NLRP3 [1] = molecular target: T1, NLRP3 (Homo sapiens, UniProt Q96P20); assay: NLRP3 Enzymatic Activity ADP-Glo Assay; conditions: read-out: NLRP3_ADP-Glo_IC50 (nM), Example B-4; NLRP3 15 nM, ATP 1 μM; 0.5% DMSO; 90 min, room temperature
Procedure: NLRP3 activity test experiment, measuring the hydrolysis of NLRP3 on the substrate ATP using the ADP-Glo assay. First, after adding an inhibitor containing 0.5% DMSO with Echo, add 5 μL of NLRP3 (ICE, YM2306T-H06MHS) enzyme solution to each well, centrifuge at 1000 rpm for 1 min at room temperature and react for 10 min. Then add 5 μL of ATP (Promega, V915A) substrate solution to each well for 90 min at room temperature; NLRP3 and ATP were prepared in 50 mM HEPES, 10 mM MgCl2, 0.01% Brij-35, 1 mM EGTA, and 2 mM DTT buffers at final concentrations of 15 nM and 1 μM, respectively. Subsequently, 10 μL ADP-Glo reagent solution (Promega, V9102) was added into each assay well, centrifuged at 1000 rpm for 1 min, and then incubated at room temperature for 45 min. Finally, 20 uL ADP-Glo detection solution (Promega, V9102) is added to each well, centrifuged at 1000 rpm for 1 min and reacted for 45 min at room temperature. The luminescence signal values were read using a BMG instrument and the IC50 values were determined by fitting the data to an S-shaped dose-response curve using nonlinear regression.

THP-1 cells = assay: IL-1β Release THP-1 Assay; conditions: read-out: THP-1 IL-1β, IC50 (nM), Example B-3; PMA-differentiated THP-1; LPS 3 h, compound 30 min, Nigericin 1 h; IL-1β by Elisa
Procedure: THP-1 cells Culture RPM11640 medium, 10% FBS, 1% PS, 55 uM β-Mer at 37 °C & 5% CO2 incubator.
• 1) Seed THP-1 in complete RPMI 1640 medium containing PMA into 96 well plate coated with poly-L-lysin incubate for 24 hours. • 2) Remove medium, wash the differentiated THP-1 cells with PBS, add FBS free RPMI 1640 medium. • 3) Add LPS and incubate for 3 hours at 37 °C & 5% CO2 incubator. • 4) Add compounds and incubate for 30 minutes at 37 °C & 5% CO2 incubator. • 5) Add Nigericin and incubate for 1 hour at 37 °C & 5% CO2 incubator. • 6) Collect supernatant to test IL-1β by Elisa.
• a) Assay robustness check with DMSO and Low control data:
change %=Sample/Ave_L*100 • b) Fit the cpd IC50 from non-linear regression equation:
Y=Bottom+(Top−Bottom)/(1+10^((Log IC50−X)*HillSlope)) • X: cpd concentration • Y: change % • Top and Bottom: Plateaus in same units as Y • log IC50: same log units as X • HillSlope: Slope factor or Hill slope

NLRP3 [2] = molecular target: T1, NLRP3; assay: NLRP3 Inflammasome Assay ([3H]-MCC950 radioligand binding, NLRP3 cell lysate); conditions: read-out: NLRP3, IC50 (nM), Example B-1; [3H]-MCC950 radioligand 25 nM working concentration; NLRP3 insect cell lysate 15 μg/well; 1.5 h, room temperature
Procedure: • 1) Compound dilutions for IC50s test: Starting at 100 μM, 3 fold dilutions were conducted. Next 11 doses were dispensed at 100 DMSO concentration. 9 μL of compound (10 mM stock from compound management team) as added to 384LDV plate. Echo was used for the dilution and transfer the compounds to assay the plate at 100 μM (top concentration at 1%~DMSO, 1.25 μL). • 2) Radioligand dilution: working concentration was 25 nM [^3H]-MCC950. 1 μL. [^3H]-MCC950 (23 μM stock) was added to 919 μL assay buffer. • 3) Prepare and transfer 100 μl of insect cell lysate to a 96-well assay plate. Final concentration: 15 μg/well for IC50 test. • 4) Transfer 25 μL of diluted ligand to the assay plate. • 5) Cover assay plates with foil tape and incubate 1.5 hour, at room temperature with gentle shaking. • 6) Using the Packard Harvester, filler the wells of the assay plate through the wells of the GF/B filter plates. Wash 8 times with cold washing buffer (4 °C, 0.4 mL per well per wash). • 7) Place the filter plates in an oven for 0.5 hours at 50 °C. • 8) Seal the bottom of the dry filter plates with backing tape. Dispense 50 μL Microscint-20 to each well of the filter plate and cover GF/B plate with TopSeal-A. • 9) Microbeta was used to count the signal. • 10) Microbeta Setting: Count Time was 30 seconds per well.

IC50 (NLRP3 [1])	IC50 (THP-1 cells)	IC50 (NLRP3 [2])	SMILES
100 to 1000 nM			C[C@H](O)CN1CCCn2ncc3c(-c4ccc(C(F)(F)F)cc4O)nnc1c32
100 to 1000 nM	100 to 1000 nM		Oc1cc(C(F)(F)F)ccc1-c1nnc2c3c1cnn3CCCN2[C@@H]1CCC[C@H]1O
100 to 1000 nM			Oc1cc(C(F)(F)F)ccc1-c1nnc2c3c1cnn3CCCN2[C@@H]1CC[C@@H](O)C1
	10 to 100 nM	10 to 100 nM	CN1CCC[C@@H](N2CCCn3ncc4c(-c5ccc(C(F)(F)F)cc5O)nnc2c43)C1
100 to 1000 nM			Oc1cc(C(F)(F)F)ccc1-c1nnc2c3c1cnn3CCCN2[C@@H]1CC[C@@H]1O
10 to 100 nM			OCCN1CCCn2ncc3c(-c4ccc(C(F)(F)F)cc4O)nnc1c32
		100 to 1000 nM	C[C@H](CO)N1CCCn2ncc3c(-c4ccc(C(F)(F)F)cc4O)nnc1c32
	100 to 1000 nM	100 to 1000 nM	C[C@@H](O)CN1CCCn2ncc3c(-c4ccc(C(F)(F)F)cc4O)nnc1c32
	10 to 100 nM	10 to 100 nM	CN1CCC[C@@H](N2CCn3ncc4c(-c5ccc(C(F)(F)F)cc5O)nnc2c43)C1
		100 to 1000 nM	CN1C[C@H](F)C[C@@H](N2CCn3ncc4c(-c5ccc(C(F)(F)F)cc5O)nnc2c43)C1
	10 to 100 nM	10 to 100 nM	CN1CCC[C@@H](N2CCCc3ncc4c(-c5ccc(C(F)(F)F)cc5O)nnc2n34)C1
> 1000 nM			C[C@@]1(O)CCC[C@H]1N1CCCn2ncc3c(-c4ccc(C(F)(F)F)cc4O)nnc1c32

Second part, the molecule before the results:

SMILES	IC50 (NLRP3 [1])	IC50 (THP-1 cells)	IC50 (NLRP3 [2])
Cc1cc(C(F)(F)F)cc(O)c1-c1cnc2c(n1)nc1n2CCN1[C@@H]1CCCN(C)C1	10 to 100 nM	< 10 nM	
CC(C(O)CO)N1CCCn2ncc3c(-c4ccc(C(F)(F)F)cc4O)nnc1c32 (centres unmarked)	> 1000 nM		
Oc1cc(C(F)(F)F)ccc1-c1nnc2c3c1cnn3CCCN2	> 1000 nM		
Oc1cc(C(F)(F)F)ccc1-c1nnc2c3c1cnn3CCN2[C@H]1CN2CCC1CC2			> 1000 nM
CC(CO)CN1CCCn2ncc3c(-c4ccc(C(F)(F)F)cc4O)nnc1c32 (centres unmarked)		100 to 1000 nM	
Cc1cc(C#N)cc(O)c1-c1cnc2c(n1)nc1n2CCN1[C@@H]1CCCN(C)C1	10 to 100 nM	10 to 100 nM	
COc1cc(C)c(-c2cnc3c(n2)nc2n3CCN2[C@@H]2CCCN(C)C2)c(O)c1	10 to 100 nM	10 to 100 nM	
OCC(O)CN1CCCn2ncc3c(-c4ccc(C(F)(F)F)cc4O)nnc1c32 (centres unmarked)	100 to 1000 nM		
C[C@@H](O)CN1CCn2ncc3c(-c4ccc(C(F)(F)F)cc4O)nnc1c32			100 to 1000 nM
